Reference: PubChem BioAssay AID463 (The Scripps Research Institute Molecular Screening Center, 2006)
Only a part is listed here, and it is no random draw. Activity calls are given as the source filed them.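 Rule for the calls: active = inhibition above the mean inhibition of all tested compounds plus 3 SD (cut at about 28% in these data); inactive = the rest.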

Assay: cytotoxicity toward Jurkat T cells, primary screen, cytotoxicity control, cell-based, Jurkat E6.1, 60K MLSMR library (AID 463)
Conditions: Jurkat E6.1 viability, ATP luminescence, 48 h; at 4 µM; hits give high values

Structure (SMILES)	inhibition
CCOc1ncccc1C(=O)NCC1(N2CCOCC2)CCCCC1	inactive: -3%
CCC(CO)(C(=O)OC1CN2CCC1CC2)c1ccccc1 (configuration not stated)	inactive: -3.4%
Fc1ccccc1NC1CCN(Cc2ccccc2)CC1	inactive: 6.9%
N/C(=N\O)c1c(N)no[n+]1[O-]	inactive: -1.3%
N#CC1(Nc2ccccc2)CCN(CCc2ccccc2)CC1	inactive: -2%
COc1ccc(NC2CCN(CCc3ccccc3)CC2)c(OC)c1	inactive: 5.2%
O=C(OC1CN2CCC1CC2)C1c2ccccc2Oc2ccccc21 (configuration not stated)	inactive: -6.8%
